# Measurements reported in patent US5318967A, “2,3,3a,4,5,9b-hexahydro-1H-benzo[e]indole derivatives” (priority 1991, dated 1994).
# Test system: rat
# Assay: Toxicity, lowest lethal dose (LLD), rat
# Settings: sc rat
compound,measurement,value
"CNC(=O)Oc1ccc2c(c1)[C@]1(C)CCN(C)[C@@H]1N2C [Physostigmin, physostigmin, reference compound]",LLD (lowest lethal dose),1 mg/kg
